From PubChem BioAssay AID2006 (Sanford-Burnham Center for Chemical Genomics, 2009)
The list shows a part of the results, in another mix than the full data. Calls of active or inactive are those of the source. No stated cut-off is given here; in the data, active means inhibition above about 50% (passing the limit was not always enough); inconclusive means no clear call, values can overlap the other calls.

Amino acid sequences for entries named in this document (tags omitted).
UniProt P63279, whole entry: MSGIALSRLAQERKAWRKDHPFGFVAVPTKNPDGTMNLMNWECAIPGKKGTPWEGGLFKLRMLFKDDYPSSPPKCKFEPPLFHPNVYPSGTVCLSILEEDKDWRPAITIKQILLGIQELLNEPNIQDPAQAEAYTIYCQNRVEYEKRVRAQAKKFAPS

Target: SUMO-conjugating enzyme UBC9 (Homo sapiens) (UniProt P63279)
Test: blockers of SAE1/SAE2–UBC9 SUMO transfer – biochemical, HTRF, uHTS, primary screen (AID 2006)
Conditions: HTRF SUMOylation assay, SAE1/SAE2 + UBC9, in vitro; at 35 µM; active compounds read high

Row | SMILES | inhibition
1 | CC(C)(C)OC(=O)N1CCC(N(C(=O)c2ccccc2)c2ccc(Cl)cc2)CC1 | inactive: 4.9%
2 | N#Cc1ccc(C(=O)NCC2(N3CCCCC3)CCCCC2)cc1 | inactive: 7%
3 | CCCN1CCC(Nc2cc(OC)cc(OC)c2)CC1 | inactive: 22.1%
4 | c1ccc(CN2CCC(Nc3ccccc3)CC2)cc1 | inactive: 12.3%
5 | CN(C)C1(CNC(=O)c2cccc(C#N)c2)CCCCC1 | inactive: 11.3%
6 | COc1ccc(C(=O)NCC2(N3CCOCC3)CCCCC2)cc1OC | inactive: 5.3%
7 | O=C(OC1CN2CCC1CC2)C1c2ccccc2C=Cc2ccccc21 (centres undefined) | inactive: 7%
8 | N/C(=N\O)c1c(N)no[n+]1[O-] | inactive: 1.4%
9 | CCOC(=O)N1CCC(Nc2ccc(C)cc2)CC1 | inactive: -13.9%
10 | CCCOc1ccc(C(=O)NCC2(N(C)C)CCCCC2)cc1 | inactive: -3.4%
11 | O=C(O)C1(Nc2ccccc2)CCN(Cc2ccccc2)CC1 | inactive: 3.9%
12 | CC(C)(C)OC(=O)N1CCC(Nc2ccccc2)CC1 | inactive: 9.4%
13 | CN1CCC(Nc2ccc(F)c(Cl)c2)CC1 | inactive: -3.8%
14 | CCOc1ncccc1C(=O)NCC1(N2CCOCC2)CCCCC1 | inactive: 9.8%
15 | CCCOc1ccc(C)cc1CN(CCCl)CCCl | inactive: 11.4%
16 | CN1CCC(Nc2ccc(Cl)cc2)CC1 | inactive: 2.7%
17 | CCC(CO)(C(=O)OC1CN2CCC1CC2)c1ccccc1 (centres undefined) | inactive: 9.3%
18 | COc1cc(OC)cc(C(=O)NCC2(N3CCOCC3)CCCCC2)c1 | inactive: 11.4%
19 | COc1cccc(C(=O)N(c2cc(C)cc(C)c2)C2CCN(C(=O)OC(C)(C)C)CC2)c1 | inactive: -4%
20 | Fc1ccccc1NC1CCN(Cc2ccccc2)CC1 | inactive: 15.3%
21 | COc1cc(OC)cc(C(=O)NCC2(N3CCCCC3)CCCCC2)c1 | inactive: 12.8%
22 | CN(C)c1ccc(C(=O)NCC2(N3CCCCC3)CCCCC2)cc1 | inactive: 6.6%
23 | CCN1CCC(Nc2cccc(F)c2)CC1 | inactive: 0.3%
24 | COc1ccc(NC2CCN(CCc3ccccc3)CC2)c(OC)c1 | inactive: 26%
25 | CCOC(=O)N1CCC(Nc2ccc(F)cc2)CC1 | inactive: 3.5%
26 | O=C(NCC1(N2CCCCC2)CCCCC1)c1ccc(F)cc1 | inactive: 2.3%
27 | CCOc1ccc(C)cc1CN(CCCl)CCCl | inactive: 9.2%

Row | SMILES | inhibition
28 | Cc1ccc(OCC(C)C)c(CN(CCCl)CCCl)c1 | inactive: -11%
29 | COc1cc(C(=O)NCC2(N(C)C)CCCCC2)ccc1OC(F)F | inactive: 8%
30 | CCOC(=O)N1CCC(Nc2cccc(C)c2)CC1 | inactive: 11.5%
31 | CSc1ccccc1C(=O)NCC1(N2CCCCC2)CCCCC1 | inactive: 11.7%
32 | O=C(NCC1(N2CCCCC2)CCCCC1)c1ccc(=O)[nH]c1 | inactive: 5%
33 | COc1ccc(C(=O)NCC2(N3CCCCC3)CCCCC2)c(OC)c1OC | inactive: -2.4%
34 | CC(C)(C)OC(=O)N1CCC(N(C(=O)c2ccccc2)c2ccc(F)cc2)CC1 | inactive: -8.3%
35 | COc1ccc(C(=O)NCC2(N3CCCCC3)CCCCC2)cc1 | inactive: 11.2%
36 | CCOC(=O)N1CCC(Nc2ccc(OC)cc2)CC1 | inactive: 3%
37 | O=C(OC1CN2CCC1CC2)C1c2ccccc2Oc2ccccc21 (centres undefined) | inactive: 16%
38 | N#CC1(Nc2ccccc2)CCN(Cc2ccccc2)CC1 | inactive: -5.4%
39 | O=C(NCC1(N2CCOCC2)CCCCC1)c1cc2ccccc2o1 | inactive: 16.7%
40 | Cc1cc(C)cc(N(C(=O)c2ccccc2)C2CCN(C(=O)OC(C)(C)C)CC2)c1 | inactive: 3.5%
41 | COc1cc(OC)c(C(=O)NCC2(N(C)C)CCCCC2)cc1OC | inactive: 6.8%
42 | CN(C)c1cccc(C(=O)NCC2(N3CCCCC3)CCCCC2)c1 | inactive: 13.9%
43 | COc1ccc(CN(CCCl)CCCl)cc1Cl | inactive: -5.7%
44 | CC(C)c1ccc(NC2CCN(C(=O)OC(C)(C)C)CC2)cc1 | inactive: 3.5%
45 | CCCOc1ccc(C(=O)NCC2(N(C)C)CCCCC2)cc1OC | inactive: 0.1%
46 | O=C(NCC1(N2CCCCC2)CCCCC1)c1cccc([N+](=O)[O-])c1 | inactive: 6.2%
47 | N#CC1(Nc2ccccc2)CCN(CCc2ccccc2)CC1 | inactive: 4.5%
48 | CCN1CCC(Nc2ccc(Cl)cc2)CC1 | inactive: 4.2%
49 | O=C(NCC1(N2CCCCC2)CCCCC1)c1ccc(OC(F)F)cc1 | inactive: -12.9%
50 | CN1CCN(CCOC(=O)C(O)(c2ccccc2)c2ccccc2)CC1 | inactive: 1%
51 | COc1ccc(NC2CCN(C(=O)OC(C)(C)C)CC2)cc1 | inactive: -16.9%
52 | COc1cc(C(=O)NCC2(N3CCCCC3)CCCCC2)ccc1OC(F)F | inactive: 3.1%
53 | O=C(NCC1(N2CCOCC2)CCCCC1)c1cc(=O)[nH]c2ccccc12 | inactive: -1.2%
54 | O=C(NCC1(N2CCCCC2)CCCCC1)c1cccc(C(F)(F)F)c1 | inactive: 4.2%
